Assay results taken from patent publication US10053458B2, “Pyrimidine-2,4-diamine derivative and anticancer pharmaceutical composition comprising same as effective ingredient” (KOREA RESEARCH INSTITUTE OF CHEMICAL TECHNOLOGY, priority 2014, dated 2018).
Like-named read-outs stand apart in the source and are kept apart here.

Protein sequences, listed by entry. Tags and fused reporters are not part of them. Residues count along the entry.
UniProt Q9UM73, 19-1620: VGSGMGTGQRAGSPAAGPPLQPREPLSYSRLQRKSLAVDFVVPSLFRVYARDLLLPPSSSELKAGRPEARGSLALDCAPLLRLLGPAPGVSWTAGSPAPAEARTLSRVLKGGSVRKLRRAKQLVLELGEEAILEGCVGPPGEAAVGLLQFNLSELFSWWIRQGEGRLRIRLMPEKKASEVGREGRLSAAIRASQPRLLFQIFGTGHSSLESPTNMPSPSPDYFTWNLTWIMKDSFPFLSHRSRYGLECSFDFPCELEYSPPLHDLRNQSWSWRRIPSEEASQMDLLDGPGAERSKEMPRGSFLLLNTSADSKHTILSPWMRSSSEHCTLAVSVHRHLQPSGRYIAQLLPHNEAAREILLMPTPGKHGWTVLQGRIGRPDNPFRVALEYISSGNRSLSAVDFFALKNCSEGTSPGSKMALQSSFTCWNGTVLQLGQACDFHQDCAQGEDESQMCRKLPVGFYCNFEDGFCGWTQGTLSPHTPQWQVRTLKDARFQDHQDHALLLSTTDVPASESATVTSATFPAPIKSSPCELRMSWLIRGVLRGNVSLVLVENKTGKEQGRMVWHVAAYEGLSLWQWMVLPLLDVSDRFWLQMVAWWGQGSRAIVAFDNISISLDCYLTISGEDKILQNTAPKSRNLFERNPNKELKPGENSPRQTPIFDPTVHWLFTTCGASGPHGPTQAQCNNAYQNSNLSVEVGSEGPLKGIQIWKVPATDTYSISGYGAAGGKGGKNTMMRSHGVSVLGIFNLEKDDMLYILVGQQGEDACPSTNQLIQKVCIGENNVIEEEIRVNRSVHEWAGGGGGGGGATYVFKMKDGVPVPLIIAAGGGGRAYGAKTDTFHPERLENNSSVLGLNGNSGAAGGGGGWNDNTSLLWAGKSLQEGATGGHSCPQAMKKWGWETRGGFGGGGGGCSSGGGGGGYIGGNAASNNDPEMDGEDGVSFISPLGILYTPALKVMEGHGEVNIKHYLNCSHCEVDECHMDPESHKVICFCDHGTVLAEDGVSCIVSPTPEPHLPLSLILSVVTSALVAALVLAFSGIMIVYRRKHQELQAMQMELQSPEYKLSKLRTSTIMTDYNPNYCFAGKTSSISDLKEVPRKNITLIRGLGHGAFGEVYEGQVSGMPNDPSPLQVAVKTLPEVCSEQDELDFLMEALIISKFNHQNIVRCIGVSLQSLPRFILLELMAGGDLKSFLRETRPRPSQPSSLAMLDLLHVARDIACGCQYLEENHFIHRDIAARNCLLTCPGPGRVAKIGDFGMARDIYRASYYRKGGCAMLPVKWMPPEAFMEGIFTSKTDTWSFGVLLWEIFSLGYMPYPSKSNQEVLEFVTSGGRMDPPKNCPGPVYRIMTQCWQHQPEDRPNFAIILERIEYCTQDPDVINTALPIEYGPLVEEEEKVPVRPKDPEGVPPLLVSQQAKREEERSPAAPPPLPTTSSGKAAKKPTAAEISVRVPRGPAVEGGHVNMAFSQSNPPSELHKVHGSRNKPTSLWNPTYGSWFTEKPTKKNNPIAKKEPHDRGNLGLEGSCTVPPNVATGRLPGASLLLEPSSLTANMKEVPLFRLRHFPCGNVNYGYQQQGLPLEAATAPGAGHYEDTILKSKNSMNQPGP

Target: ALK wt. (Homo sapiens (Human), UniProt Q9UM73)
Experiment: ALK enzyme inhibitory activity (HTRF kinase assay), ALK wt.
Settings: read-out: ALK wt. IC50

Structure (SMILES)	IC50 (enzyme level, HTRF)	IC50
COc1cc2c(cc1Nc1ncc(Cl)c(Nc3ccccc3S(=O)(=O)C(C)C)n1)CNC2 [Example 1, 5-chloro-N4-(2-(isopropylsulfonyl)phenyl)-N2-(6-methoxyisoindolin-5-yl)pyrimidine-2,4-diamine]		< 10 nM
COc1cc2c(cc1Nc1ncc(Cl)c(Nc3ccccc3S(=O)(=O)C(C)C)n1)C(C)(C)CN(C(=O)C(F)(F)F)C2 [Example 11, 1-(6-(5-chloro-4-(2-(isopropylsulfonyl)phenylamino)pyrimidin-2-yl)amino-7-methoxy-4,4-dimethyl-3,4-dihydroisoquinolin-2(1H)-yl)-2,2,2-trifluoroethane-1-one]	< 10 nM	
COc1cc2c(cc1Nc1ncc(Cl)c(Nc3ccccc3S(=O)(=O)C(C)C)n1)C(C)(C)CNC2 [Example 12]	< 10 nM	
COc1cc2c(cc1Nc1ncc(Cl)c(Nc3ccccc3S(=O)(=O)C(C)C)n1)C1(CCCCC1)CNC2 [Example 16, 5-chloro-N4-(2-(isopropylsulfonyl)phenyl)-N2-(7-methoxy-2,3-dihydro-1H-spiro[cyclohexane-1,4-isoquinoline]-6-yl)pyrimidine-2,4-diamine]	< 10 nM	
CC(C)COc1cc2c(cc1Nc1ncc(Cl)c(Nc3ccccc3S(=O)(=O)C(C)C)n1)CCN(C(=O)C(F)(F)F)C2 [Example 19, 1-(6-(5-chloro-4-(2-(isopropylsulfonyl)phenylamino)pyrimidin-2-yl)amino-7-isobutoxy-3,4-dihydroisoquinolin-2(1H)-yl)-2,2,2-trifluoroethane-1-one]	< 10 nM	
COc1cc2c(cc1Nc1ncc(Cl)c(Nc3ccccc3S(=O)(=O)C(C)C)n1)CCN(C1CCNCC1)C2 [Example 24]	< 10 nM	
COc1cc2c(cc1Nc1ncc(Cl)c(Nc3ccccc3S(=O)(=O)C(C)C)n1)CC1(CC1)NC2C (stereo not shown) [Example 30, 5-chloro-N4-(2-(isopropylsulfonyl)phenyl)-N2-(7-methoxy-1methyl-1,4-dihydro-2H-spiro[cyclopropane-1,3-isoquinoline]-6-yl)pyrimidine-2,4-diamine]	< 10 nM	
COc1cc2c(cc1Nc1ncc(Cl)c(Nc3ccccc3S(=O)(=O)C(C)C)n1)CCN(Cc1ccccc1)C2(C)C [Example 31]	< 10 nM	
COc1cc2c(cc1Nc1ncc(Cl)c(Nc3ccccc3S(=O)(=O)C(C)C)n1)CCN(C(=O)C(F)(F)F)C2(C)C [Example 32, 1-(6-(5-chloro-4-(2-(isopropylsulfonyl)phenylamino)pyrimidin-2-yl)amino-7-methoxy-1,1-dimethyl-3,4-dihydroisoquinolin-2(1H)-yl)-2,2,2-trifluoroethane-1-one]	< 10 nM	
CC(C)Oc1cc2c(cc1Nc1ncc(Cl)c(Nc3ccccc3S(=O)(=O)C(C)C)n1)CCNC2C (stereo not shown) [Example 70]	< 10 nM	
CCC1(C)NCCc2cc(Nc3ncc(Cl)c(Nc4ccccc4S(=O)(=O)C(C)C)n3)c(OC)cc21 (stereo not shown) [Example 73]	< 10 nM	
CCC1(CC)NCCc2cc(Nc3ncc(Cl)c(Nc4ccccc4S(=O)(=O)C(C)C)n3)c(OC)cc21 [Example 74]	< 10 nM	
COc1cc2c(cc1Nc1ncc(Cl)c(Nc3ccccc3S(=O)(=O)C(C)C)n1)CCN(C(=O)CO)C2(C)C [Example 78, 1-6-(5-chloro-4-(2-(isopropylsulfonyl)phenylamino)pyrimidin-2-yl)amino-7-methoxy-1,1-dimethyl-3,4-dihydroisoquinolin-2(1H)-yl-2-hydroxyethane-1-one]	< 10 nM	
CCN1CCc2cc(Nc3ncc(Cl)c(Nc4ccccc4S(=O)(=O)C(C)C)n3)c(OC(C)C)cc2C1(C)C [Example 79]		< 10 nM
CC(C)Oc1cc2c(cc1Nc1ncc(Cl)c(Nc3ccccc3S(=O)(=O)C(C)C)n1)CNCC2(C)C [Example 80]	< 10 nM	
COc1cc2c(cc1Nc1ncc(Cl)c(Nc3ccccc3S(=O)(=O)C(C)C)n1)CNCC21CCCC1 [Example 83, 5-chloro-N4-(2-(isopropylsulfonyl)phenyl)-N2-(6-methoxy-2,3-dihydro-1H-spiro(cyclopentane-1,4-isoquinolin)-7-yl)pyrimidine-2,4-diamine]	< 10 nM	
COc1cc2c(cc1Nc1ncc(Cl)c(Nc3ccccc3S(=O)(=O)C(C)C)n1)C1CNCC(=O)N1CC2(C)C (stereo not shown) [Example 85]	< 10 nM	
COc1cc2c(c(Br)c1Nc1ncc(Cl)c(Nc3ccccc3S(=O)(=O)C(C)C)n1)CCNC2(C)C [Example 87]	< 10 nM	
COc1cc2c(c(Cl)c1Nc1ncc(Cl)c(Nc3ccccc3S(=O)(=O)C(C)C)n1)CCNC2(C)C [Example 88]	< 10 nM	
COc1c(Nc2ncc(Cl)c(Nc3ccccc3S(=O)(=O)C(C)C)n2)cc2c(c1Br)C(C)(C)NCC2 [Example 89]	< 10 nM	
COc1c(Nc2ncc(Cl)c(Nc3ccccc3S(=O)(=O)C(C)C)n2)cc2c(c1Cl)C(C)(C)NCC2 [Example 90]	< 10 nM	
COc1cc2c(cc1Nc1ncc(Cl)c(Nc3ccccc3S(=O)(=O)C(C)C)n1)CN(C)CC2(C)C [Example 91]	< 10 nM	

Second part, led by results:

IC50 (enzyme level, HTRF)	Structure (SMILES)	IC50
< 10 nM	COc1cc2c(cc1Nc1ncc(Cl)c(Nc3ccccc3S(=O)(=O)C(C)C)n1)C1(CCCCC1)CN(C(=O)C(F)(F)F)C2 [Example 15, 1-(6-(5-chloro-4-(2-(isopropylsulfonyl)phenylamino)pyrimidin-2-yl)amino-7-methoxy-1H-spiro[cyclohexane-1,4-isoquinoline]-2(3H)-yl)-2,2,2-trifluoroethane-1-one]	
< 10 nM	CC(C)Oc1cc2c(cc1Nc1ncc(Cl)c(Nc3ccccc3S(=O)(=O)C(C)C)n1)CCN(C(=O)C(F)(F)F)C2 [Example 17, 1-(6-(5-chloro-4-(2-(isopropylsulfonyl)phenylamino)pyrimidin-2-yl)amino-7-isopropoxy-3,4-dihydroisoquinolin-2(1H)-yl)-2,2,2-trifluoroethane-1-one]	
< 10 nM	CCC(C)Oc1cc2c(cc1Nc1ncc(Cl)c(Nc3ccccc3S(=O)(=O)C(C)C)n1)CCN(C(=O)C(F)(F)F)C2 (stereo not shown) [Example 21]	
< 10 nM	COc1cc2c(cc1Nc1ncc(Cl)c(Nc3ccccc3S(=O)(=O)C(C)C)n1)CCNC2C(F)(F)F (stereo not shown) [Example 26]	
< 10 nM	COc1cc2c(cc1Nc1ncc(Cl)c(Nc3ccccc3S(=O)(=O)C(C)C)n1)CC1(CC1)N(C(=O)C(F)(F)F)C2C (stereo not shown) [Example 29]	
< 10 nM	CC(C)Oc1cc2c(cc1Nc1ncc(Cl)c(Nc3ccccc3S(=O)(=O)C(C)C)n1)CCNC2(C)C [Example 71]	
< 10 nM	COc1cc2c(cc1Nc1ncc(Cl)c(Nc3ccccc3S(=O)(=O)C(C)C)n1)C(C)(C)NCC2 [Example 72]	
< 10 nM	COc1cc2c(cc1Nc1ncc(Cl)c(Nc3ccccc3S(=O)(=O)C(C)C)n1)CNCC2(C)C [Example 75]	
< 10 nM	COc1cc2c(cc1Nc1ncc(Cl)c(Nc3ccccc3S(=O)(=O)C(C)C)n1)CCNC2C(=O)O (stereo not shown) [Example 76, 6-(5-chloro-4-(2-(isopropylsulfonyl)phenylamino)pyrimidin-2-yl)amino-7-methoxy-1,2,3,4-dihydroisoquinoline-1-carboxylic acid]	
< 10 nM	CCN1CCc2cc(Nc3ncc(Cl)c(Nc4ccccc4S(=O)(=O)C(C)C)n3)c(OC)cc2C1(C)C [Example 77]	
< 10 nM	CCOc1cc2c(cc1Nc1ncc(Cl)c(Nc3ccccc3S(=O)(=O)C(C)C)n1)CN(CC)CC2(C)C [Example 81]	
< 10 nM	CCN1Cc2cc(Nc3ncc(Cl)c(Nc4ccccc4S(=O)(=O)C(C)C)n3)c(OC(C)C)cc2C(C)(C)C1 [Example 82]	
< 10 nM	COc1cc2c(cc1Nc1ncc(Cl)c(Nc3ccccc3S(=O)(=O)C(C)C)n1)C1CNCCN1CC2(C)C (stereo not shown) [Example 86, 5-chloro-N4-(2-(isopropylsulfonyl)phenyl)-N2-(9-methoxy-7,7-dimethyl-1,3,4,6,7,11b-hexahydro-2H-pyrazino[2,1-a]isoquinolin-10-yl)pyrimidine-2,4-diamine]	
< 10 nM	CCN1Cc2cc(Nc3ncc(Cl)c(Nc4ccccc4S(=O)(=O)C(C)C)n3)c(OC)cc2C(C)(C)C1 [Example 92]	
< 10 nM	COc1cc2c(cc1Nc1ncc(Cl)c(Nc3ccccc3S(=O)(=O)C(C)C)n1)CN(C(=O)CN(C)C)CC2(C)C [Example 94]	
< 10 nM	COc1cc2c(cc1Nc1ncc(Cl)c(Nc3ccccc3S(=O)(=O)C(C)C)n1)CN(C(=O)CO)CC2(C)C [Example 95]	
< 10 nM	COc1cc2c(cc1Nc1ncc(Cl)c(Nc3ccccc3S(=O)(=O)C(C)C)n1)CNCC21CC1 [Example 96, 5-chloro-N4-(2-(isopropylsulfonyl)phenyl)-N2-(6-methoxy-2,3-dihydro-1H-spiro(cyclopropane-1,4-isoquinolin)-7-yl)pyrimidine-2,4-diamine]	
< 10 nM	CCCC1NCCc2cc(Nc3ncc(Cl)c(Nc4ccccc4S(=O)(=O)C(C)C)n3)c(OC)cc21 (stereo not shown) [Example 102]	
< 10 nM	COc1cc2c(cc1Nc1ncc(Cl)c(Nc3ccccc3S(=O)(=O)C(C)C)n1)CCCNC2(C)C [Example 104, 5-chloro-N4-(2-(isopropylsulfonyl)phenyl)-N2-(8-methoxy-1,1-dimethyl-2,3,4,5-tetrahydro-1H-benzo[c]azepin-7-yl)pyrimidine-2,4-diamine]	
< 10 nM	COc1cc2c(cc1Nc1ncc(Cl)c(Nc3ccccc3S(=O)(=O)C(C)C)n1)CCNCC2(C)C [Example 105, 5-chloro-N4-(2-(isopropylsulfonyl)phenyl)-N2-(8-methoxy-1,1-dimethyl-2,3,4,5-tetrahydro-1H-benzo[d]azepin-7-yl)pyrimidine-2,4-diamine]	
< 10 nM	COc1cc2c(cc1Nc1ncc(Cl)c(Nc3ccccc3S(=O)(=O)C(C)C)n1)CNC2(C)C [Example 106, 5-chloro-N4-(2-(isopropylsulfonyl)phenyl)-N2-(6-methoxy-1,1-dimethylisoindolin-5-yl)pyrimidine-2,4-diamine]	
